AlphaSeq binding of Ab-14 light chain variants to a spike HR2 peptide

Antigen: PDVDLGDISGINAS, a 14-residue peptide of the SARS-CoV-2 spike HR2 region.

Parent: Ab-14, a human scFv built as VH, a (GGGGS)3 linker, VL. Only the CDRs of the light chain vary.
VH: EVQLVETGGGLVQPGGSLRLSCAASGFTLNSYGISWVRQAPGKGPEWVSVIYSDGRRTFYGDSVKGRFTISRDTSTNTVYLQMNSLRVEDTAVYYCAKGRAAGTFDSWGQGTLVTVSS
VL: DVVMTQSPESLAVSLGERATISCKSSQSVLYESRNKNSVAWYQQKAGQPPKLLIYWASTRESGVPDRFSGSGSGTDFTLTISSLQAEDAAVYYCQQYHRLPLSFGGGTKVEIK

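The library (AAYL50) carries one to three amino acid substitutions per variant, with no insertions or deletions. In AlphaSeq, yeast of one mating type display the scFv and yeast of the other type display the target. After mating in shaken culture at 30 °C for 16 h, diploids were selected and their barcode pairs sequenced. Read counts were normalised to the haploid input and turned into Kd by a linear fit to BCL2-family pairs of known affinity, for each replicate. Each pool was mated in three replicate cultures.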

Each variant is given by its three light chain CDRs, as the data file delimits them; those of the parent are KSSQSVLYESRNKNSVA, WASTRES, QQYHRLPLS.
Scale: log10 of Kd in nM, estimated from mating counts; low values are strong binders.
The mean shown is taken over the replicates in which the pair was detected.
Where no diploid with the target was found in any replicate, the entry reads "nd": below detection, most likely a poor binder, though not proof of it.

CDR-L1 | CDR-L2 | CDR-L3 | log10 Kd (nM), mean | seen in
KSSQRVLYESRPKNSVA | WASTRES | QQYHRLNLS | 3.74 | 2/3
KSSQSVLYESRNKNSVA | WDSTRES | QGYHRLPLS | 1.56 | 3/3
KSSQSCLYEERNKNYVA | WASTRES | QQYHRLPLS | 2.63 | 2/3
KSSQSWLYESRNKNSVA | WYSTRES | QQYVRLPLS | nd | 0/3
KSSQSVLYEIRHKNSVA | WASTRES | QQYHRNPLS | 4.19 | 2/3
KSSQSVLYESRNKNSVA | WASTRES | QQYRRLPLQ | 2.96 | 3/3
KSSQSVLYESRNKNSVF | WASMRES | QQYHREPLS | nd | 0/3
KSSQYVLYESRNKNHVA | WASTRES | EQYHRLPLS | 4.28 | 2/3
KSSFSELYESRNKISVA | WASTRES | QQYHRLPLS | 1.71 | 3/3
KASQSVLYESRNKNRVG | WASTRES | QQYHRLPLS | nd | 0/3
KSSQSVLYESRNKNSVA | WAQTMES | QQYHRLMLS | 2.87 | 1/3
SSSQSVLYEGRNCNSVA | WASTRES | QQYHRLPLS | 0.54 | 3/3
KSSQSNLVLSRNKNSVA | WASTRES | QQYHRLPLS | 4.75 | 3/3
KSSQSVLYESRAKASVA | WASTREH | QQYHRLPLS | 1.67 | 3/3
KSSQSVKNESRNKNSVA | WASTNES | QQYHRLPLS | nd | 0/3
KSSQSVLYESRNKNSVA | WASTREY | QSYHRLALS | 4.67 | 3/3
KSSGSVLYESRNKESVA | WASTRES | QMYHRLPLS | 2.46 | 3/3
KSSQSQLYESRNKNSVA | WASTRES | QQCHRLGLS | 3.79 | 2/3
KSSHSVLYESRNKNSVA | WASTRES | QQYHRLYLQ | 1.79 | 3/3
KSSQPVLYESRNLNSVH | WASTRES | QQYHRLPLS | nd | 0/3
KSSQSVPYESCNKNSVA | WASTRES | QEYHRLPLS | 1.89 | 3/3
KSSQSVLYETRNKNSVA | WASCRES | QQYHRLPLS | 2.05 | 3/3
KSSQSVLYESRNKNSVA | WASTRES | QQYFRLPLC | 1.78 | 3/3
KSSQSVYYESRNKNSVA | WTSTRET | QQYHRLPLS | 1.05 | 3/3
KSSQSVLYESRNKNSVP | WASTRES | QVYHRLPLS | nd | 0/3
KSMQSVLYEGQNKNSVA | WASTRES | QQYHRLPLS | 0.53 | 3/3
KSSQSVLYESRNKNSVA | WASTREI | QQYLELPLS | 6.39 | 2/3
MSSQSVLYESRNKNSVA | WASTRCS | QQYHELPLS | 3.01 | 3/3
KSSQSVLYRSRNKNSVA | WASTRES | QQRHRLPLR | nd | 0/3
KSSQSVLYLSRNENSVA | WASTRES | QQYHRLPMS | 3.35 | 3/3
KSCQSVLYEARNKNCVA | WASTRES | QQYHRLPLS | 3.74 | 1/3
KSSQSVLYESRNKNSVA | WAKTRSS | QQYHTLPLS | 4.90 | 3/3
KSSQSVYYESRNKNSVA | WASLRES | QQYHRLPLQ | 2.66 | 3/3
KSSQSVLYESRNKNSVA | WASTRQS | WQYFRLPLS | 2.14 | 3/3
KSSQSVLYEPRNKNSRA | WASTRES | EQYHRLPLS | 3.66 | 1/3
KGSQSVDYESWNKNSVA | WASTRES | QQYHRLPLS | 3.13 | 1/3
KSSQSVQYESRNKNSVA | WASTRES | QQYARLPLS | 2.16 | 3/3
TSSQSVLYESRNKKSVA | WASTRES | QQYHRLPWS | 3.56 | 1/3
KSSQSCLYERRNKNSVA | WASTRES | QQYHRLPLS | 2.46 | 3/3
KSSQSVLYESRNKNSVA | WATTRMS | QCYHRLPLS | 1.24 | 3/3
KSSQSVLYESRMCNGVA | WASTRES | QQYHRLPLS | 2.41 | 3/3
KSSQSLLYESRNKWSVA | WASTRES | QQYHRHPLS | 1.54 | 3/3
KSSDSQLYESMNKNSVA | WASTRES | QQYHRLPLS | 0.37 | 3/3
KSSQSVMYESRNKNSVH | WASTRES | KQYHRLPLS | nd | 0/3
KSSGSKLYESRNKNSVA | WASTRES | QQYHRRPLS | 1.63 | 3/3
KSSQSVLYESRNKNIVA | WFSTRES | QQYHRLPDS | nd | 0/3
KSSQNVLYESRNKNSVA | WASTREM | QQYHRYPLS | nd | 0/3
KSSQSVLYESRNKNSVA | WAMTHES | QQYERLPLS | nd | 0/3

For reference, 2 entries of the list once more:

CDR-L1 | CDR-L2 | CDR-L3 | log10 Kd (nM), mean | seen in
KSSQPVLYESRNLNSVH | WASTRES | QQYHRLPLS | nd | 0/3
KSSGSVLYESRNKESVA | WASTRES | QMYHRLPLS | 2.46 | 3/3

As a blank, each scFv also met three strains without target: over library AAYL50, 18% of these pairings were detected, typically at 4.19 and seldom below 2.99.
Parent in this assay: reference entry 0.65, copy in this library 1.68.

From the AlphaSeq antibody data of Engelhart et al. 2022 (doi:10.1038/s41597-022-01779-4), copy in the FLAb collection.